Test results taken from ChEMBL document CHEMBL1149577, “Rational design of 7-arylquinolines as non-competitive metabotropic glutamate receptor subtype 5 antagonists” (Bioorg Med Chem Lett, 2007).

Sequences of proteins named here, by UniProt entry; tags and fusion partners are left off.
UniProt P31424, whole entry: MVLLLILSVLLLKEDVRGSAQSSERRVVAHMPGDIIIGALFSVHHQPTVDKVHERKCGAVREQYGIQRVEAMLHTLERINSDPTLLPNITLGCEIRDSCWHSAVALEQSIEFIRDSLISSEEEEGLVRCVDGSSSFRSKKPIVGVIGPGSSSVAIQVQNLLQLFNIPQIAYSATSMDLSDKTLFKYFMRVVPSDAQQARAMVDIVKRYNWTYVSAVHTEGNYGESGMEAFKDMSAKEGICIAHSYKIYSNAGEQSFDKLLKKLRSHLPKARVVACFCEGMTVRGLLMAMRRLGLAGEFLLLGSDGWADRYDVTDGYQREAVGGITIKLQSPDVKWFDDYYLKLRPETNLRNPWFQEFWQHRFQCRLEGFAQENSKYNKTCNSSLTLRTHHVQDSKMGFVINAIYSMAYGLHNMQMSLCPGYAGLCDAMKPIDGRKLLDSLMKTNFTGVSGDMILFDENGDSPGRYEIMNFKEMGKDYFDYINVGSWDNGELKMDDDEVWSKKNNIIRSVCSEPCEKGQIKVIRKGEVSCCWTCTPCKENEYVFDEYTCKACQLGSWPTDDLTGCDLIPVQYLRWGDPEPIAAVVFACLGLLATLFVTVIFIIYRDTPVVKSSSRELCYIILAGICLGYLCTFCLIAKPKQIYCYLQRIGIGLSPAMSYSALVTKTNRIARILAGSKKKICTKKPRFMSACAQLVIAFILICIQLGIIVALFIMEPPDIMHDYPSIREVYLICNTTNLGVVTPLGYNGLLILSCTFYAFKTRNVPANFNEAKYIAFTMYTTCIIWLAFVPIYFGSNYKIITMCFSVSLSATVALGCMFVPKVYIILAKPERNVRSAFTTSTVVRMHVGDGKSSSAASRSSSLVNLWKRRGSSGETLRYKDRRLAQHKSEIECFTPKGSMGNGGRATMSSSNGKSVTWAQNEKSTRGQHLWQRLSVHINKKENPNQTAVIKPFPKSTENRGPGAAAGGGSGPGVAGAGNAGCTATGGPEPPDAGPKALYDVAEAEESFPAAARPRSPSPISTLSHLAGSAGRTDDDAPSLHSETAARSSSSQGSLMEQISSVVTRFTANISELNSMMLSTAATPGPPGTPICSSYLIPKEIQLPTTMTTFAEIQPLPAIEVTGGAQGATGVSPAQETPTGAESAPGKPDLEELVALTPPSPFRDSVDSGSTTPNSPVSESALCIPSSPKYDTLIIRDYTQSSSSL

Legend:
[1] = target: T1, Metabotropic glutamate receptor 5 (Rattus norvegicus, UniProt P31424); assay: Displacement of [3H]MPEP from mGlu5 receptor in rat brain; format: tissue-based
[2] = target: T1, Metabotropic glutamate receptor 5; assay: Activity at rat mGlu5 receptor expressed in CHO cells assessed as inhibition of quisqualate-stimulated calcium mobilization by FLIPR assay; format: functional, cell-based

pKi [1]: 8.24 | pIC50 [2]: 9.70
SMILES: Cc1cccc(C#Cc2ccccc2)n1

pIC50, pKi: −log10 of the molar value.
